Assay results: ChEMBL document CHEMBL5338786, “In Silico-Guided Rational Drug Design and Synthesis of Novel 4-(Thiophen-2-yl)butanamides as Potent and Selective TRPV1 Agonists” (J Med Chem, 2023)
Calls of active or inactive are those of the source. The rule behind the calls is not given here.

Chains of the proteins cited; added tags and fusions are not shown.
UniProt Q6RI86, whole entry: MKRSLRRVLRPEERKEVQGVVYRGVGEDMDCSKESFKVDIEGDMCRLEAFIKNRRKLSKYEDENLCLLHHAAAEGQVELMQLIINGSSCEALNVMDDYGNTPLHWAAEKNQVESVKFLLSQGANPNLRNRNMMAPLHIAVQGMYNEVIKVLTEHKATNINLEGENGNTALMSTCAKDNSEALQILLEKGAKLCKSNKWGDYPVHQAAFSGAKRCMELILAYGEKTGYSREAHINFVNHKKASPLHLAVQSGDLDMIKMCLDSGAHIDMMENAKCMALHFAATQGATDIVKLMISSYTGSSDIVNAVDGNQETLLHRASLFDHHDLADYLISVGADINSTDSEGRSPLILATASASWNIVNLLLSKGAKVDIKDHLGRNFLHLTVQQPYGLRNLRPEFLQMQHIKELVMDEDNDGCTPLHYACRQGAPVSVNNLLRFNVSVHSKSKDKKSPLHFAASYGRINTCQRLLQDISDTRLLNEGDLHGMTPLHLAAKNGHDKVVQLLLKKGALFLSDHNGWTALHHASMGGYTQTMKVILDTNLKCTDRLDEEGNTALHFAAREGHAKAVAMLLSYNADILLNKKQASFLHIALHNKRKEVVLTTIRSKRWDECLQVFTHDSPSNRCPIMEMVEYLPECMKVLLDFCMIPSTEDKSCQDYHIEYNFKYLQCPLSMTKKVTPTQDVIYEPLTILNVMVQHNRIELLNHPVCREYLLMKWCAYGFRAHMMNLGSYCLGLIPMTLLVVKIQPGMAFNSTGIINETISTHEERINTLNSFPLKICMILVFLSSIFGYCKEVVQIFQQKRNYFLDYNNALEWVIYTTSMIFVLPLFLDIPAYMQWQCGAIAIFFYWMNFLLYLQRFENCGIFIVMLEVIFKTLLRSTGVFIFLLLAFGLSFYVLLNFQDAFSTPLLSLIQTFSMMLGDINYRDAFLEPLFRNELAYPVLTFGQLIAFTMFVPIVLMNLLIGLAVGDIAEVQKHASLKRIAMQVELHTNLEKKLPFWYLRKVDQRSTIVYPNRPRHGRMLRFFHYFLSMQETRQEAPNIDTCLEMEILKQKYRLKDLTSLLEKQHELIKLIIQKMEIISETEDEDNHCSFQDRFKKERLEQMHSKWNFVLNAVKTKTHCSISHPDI
UniProt Q9ERZ8, whole entry: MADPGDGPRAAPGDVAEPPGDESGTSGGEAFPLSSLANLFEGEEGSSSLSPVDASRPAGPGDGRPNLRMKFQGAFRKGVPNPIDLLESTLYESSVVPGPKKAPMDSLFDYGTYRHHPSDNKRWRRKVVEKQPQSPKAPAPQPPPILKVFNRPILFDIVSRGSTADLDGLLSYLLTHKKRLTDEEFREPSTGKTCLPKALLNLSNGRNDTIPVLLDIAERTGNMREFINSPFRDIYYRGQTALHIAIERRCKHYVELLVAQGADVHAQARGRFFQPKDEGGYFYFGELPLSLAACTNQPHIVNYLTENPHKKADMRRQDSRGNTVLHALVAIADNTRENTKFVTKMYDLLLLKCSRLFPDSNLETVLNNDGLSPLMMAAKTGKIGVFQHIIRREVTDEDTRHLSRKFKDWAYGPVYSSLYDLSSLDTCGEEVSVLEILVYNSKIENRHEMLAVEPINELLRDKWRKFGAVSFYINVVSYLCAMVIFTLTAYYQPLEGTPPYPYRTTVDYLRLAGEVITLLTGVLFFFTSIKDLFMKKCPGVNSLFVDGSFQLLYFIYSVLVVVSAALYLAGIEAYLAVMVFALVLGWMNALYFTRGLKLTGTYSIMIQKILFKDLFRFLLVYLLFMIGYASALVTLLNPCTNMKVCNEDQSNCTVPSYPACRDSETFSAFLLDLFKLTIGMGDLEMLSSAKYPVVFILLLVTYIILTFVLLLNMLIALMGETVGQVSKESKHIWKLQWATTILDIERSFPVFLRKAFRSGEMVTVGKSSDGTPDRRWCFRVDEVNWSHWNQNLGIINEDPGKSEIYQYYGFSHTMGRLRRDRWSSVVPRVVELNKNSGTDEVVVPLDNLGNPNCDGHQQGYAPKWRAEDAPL

Tests used:
Format in all cases: cell-based
[1] = molecular target: Transient receptor potential cation channel subfamily A member 1 (Rattus norvegicus) (UniProt Q6RI86); experiment: Agonist activity at rat recombinant TRPA1 expressed in HEK293 cells assessed as increase in intracellular calcium accumulation by Fluo4-AM based assay
[2] = molecular target: Transient receptor potential cation channel subfamily A member 1 (Rattus norvegicus) (UniProt Q6RI86); experiment: Agonist activity at rat recombinant TRPA1 expressed in HEK293 cells assessed as increase in intracellular calcium accumulation by measuring efficacy by Fluo4-AM based assay relative to allyl isothiocyanate
[3] = molecular target: Transient receptor potential cation channel subfamily V member 4 (Rattus norvegicus) (UniProt Q9ERZ8); experiment: Agonist activity at rat recombinant TRPV4 expressed in HEK293 cells assessed as increase in intracellular calcium accumulation by measuring efficacy by Fluo4-AM based assay relative to ionomycin

Structure (SMILES) | Activity [1] | Efficacy [2] [%] | Efficacy ([2]; filed as agonist) [%] | Efficacy [3] [%]
O=C(CCCc1ccc(-c2ccccc2)s1)NCc1ccc(O)cc1 | inactive | < 10 | – | –
O=C(CCCc1ccc(I)s1)NCc1ccccc1 | inactive | < 10 | – | –
O=C(CCCc1ccc(I)s1)NCc1ccc(Cl)c(Cl)c1 | – | – | 90.5 | –
COc1cc(CNC(=O)CCCc2ccc(I)s2)ccc1O | inactive | < 10 | – | < 10
COc1ccc(CNC(=O)CCCc2ccc(I)s2)cc1 | inactive | < 10 | – | –
O=C(CCCc1ccc(-c2cccnc2)s1)NCc1ccc(Cl)c(Cl)c1 | – | – | 70.7 | –
COc1cc(CNC(=O)CCCc2ccccc2)ccc1O | – | – | 118 | –
COc1cc(CNC(=O)CCCc2ccc(-c3ccccc3)s2)ccc1O | – | – | 147 | < 10
O=C(CCCc1ccc(I)s1)Nc1ccc(O)cc1 | – | – | 134 | –
O=C(CCCc1ccccc1)NCc1ccc(Cl)c(Cl)c1 | – | – | 102 | –
O=C(CCCc1ccc(-c2ccccc2)s1)Nc1ccc(O)cc1 | inactive | < 10 | – | –
O=C(CCCc1ccc(I)s1)NCc1ccc(O)cc1 | inactive | < 10 | – | –
O=C(CCCc1ccccc1)Nc1ccc(O)cc1 | inactive | < 10 | – | –
O=C(CCCc1ccc(-c2cccnc2)s1)Nc1ccc(O)cc1 | inactive | < 10 | – | –
O=C(CCCc1ccccc1)NCc1ccc(O)cc1 | inactive | < 10 | – | –
O=C(CCCc1ccc(-c2ccccc2)s1)NCc1ccc(Cl)c(Cl)c1 | – | – | 53.9 | –
O=C(CCCc1ccc(-c2ccccc2)s1)NCc1ccccc1 | inactive | < 10 | – | –
O=C(CCCc1ccc(-c2cccnc2)s1)NCc1ccc(O)cc1 | – | 31 | – | –
COc1cc(CNC(=O)CCCc2ccc(-c3cccnc3)s2)ccc1O | inactive | < 10 | – | < 10
O=C(CCCc1cccs1)NCc1ccccc1 | inactive | < 10 | – | –
